The experiment has as its target Nanoluciferase-BRD9 fusion protein (Homo sapiens (Human), UniProt Q9H8M2). As to the kind of experiment: SYO1 BRD9 NanoLuc degradation assay. The settings on record: read-out: SYO1 BRD9-NanoLuc degradation IC50, SYO-1 cells expressing 3×FLAG-NLuc-BRD9, 6 hours.

Chains of the proteins cited; added tags and fusions are not shown.
UniProt Q9H8M2, whole entry: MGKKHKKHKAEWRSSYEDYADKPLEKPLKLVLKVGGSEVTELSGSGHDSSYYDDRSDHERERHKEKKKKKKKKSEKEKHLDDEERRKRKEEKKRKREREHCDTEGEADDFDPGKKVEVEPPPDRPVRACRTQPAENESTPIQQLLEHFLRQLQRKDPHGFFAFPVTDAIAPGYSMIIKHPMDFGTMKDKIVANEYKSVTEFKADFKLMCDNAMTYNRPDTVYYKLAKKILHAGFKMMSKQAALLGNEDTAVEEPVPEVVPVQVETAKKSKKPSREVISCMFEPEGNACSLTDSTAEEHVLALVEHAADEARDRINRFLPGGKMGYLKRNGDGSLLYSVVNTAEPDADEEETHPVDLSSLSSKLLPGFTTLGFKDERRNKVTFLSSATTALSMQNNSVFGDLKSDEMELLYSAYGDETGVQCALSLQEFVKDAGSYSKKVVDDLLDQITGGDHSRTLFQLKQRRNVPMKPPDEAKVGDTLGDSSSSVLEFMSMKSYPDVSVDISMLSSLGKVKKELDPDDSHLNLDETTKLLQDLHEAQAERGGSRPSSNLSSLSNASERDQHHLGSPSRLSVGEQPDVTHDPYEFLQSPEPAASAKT

Data on four compounds can be found in patent publication US11414416B1, “Compounds and uses thereof” (Foghorn Therapeutics Inc., priority 2019, dated 2022).

Molecules are shown by their SMILES. pIC50: −log10 of the molar value. Like-named read-outs stand apart in the source and are kept apart here.

Consider `COc1cc(-c2cn(C)c(=O)c3[nH]ccc23)cc(OC)c1CN1CCC2(CC1)CN(c1ccc3c(c1)C(=O)N(C1CCC(=O)NC1=O)C3)C2` (stereo not shown), for which the pIC50 (Table 5C) is over 8.00.

On to `COc1cc(-c2cc(C)c(=O)n(C)c2)cc(OC)c1CN1CC(F)(C#Cc2ccc3c(c2)C(=O)N(C2CCC(=O)NC2=O)C3)C1` (stereo not shown), for which the negative-log IC50 (pIC50) (Table 5C) is over 8.00.

As to `COc1cc(-c2cn(C)c(=O)c3cnccc23)cc(OC)c1CN(C)CCn1cc(COc2ccc3c(c2)C(=O)N(C2CCC(=O)NC2=O)C3=O)nn1` (stereo not shown), the pIC50 (Table 5B) is over 8.00. Still for that read-out and setting: the value for `COc1cc(-c2cn(C)c(=O)c3cnccc23)cc(OC)c1CN(C)CCOCCn1cc(COC2CCN(c3ccc4c(c3)C(=O)N(C3CCC(=O)NC3=O)C4=O)CC2)nn1` (stereo not shown) was 6.00 to 7.00.
